Tested on: human primary fibroblasts
Experiment: SRB assay, 48 h, cytostasis, primary fibroblasts
Assay type: cell-based
Conditions: MTT 4 h and SRB 48 h
Experimental: The compounds were tested between 0.001694 and 33.3333 µM, using a 4-hour-long MTT test to assess rapid toxicity and a 48-hour-long SRB assay to assess the long-term effects of the inhibition of proliferation (cytostasis). The MTT assay assesses the activity of mitochondrial complex I and detects rapid, direct toxicity, as well as indicating apoptosis and necrosis. The SRB assay measures the total protein content that is proportional to cell numbers; therefore, the assay can detect changes in cell numbers and can thus be used as a readout for cell proliferation. The SRB assay was performed after 48 h of treatment (with the exception of L428 cells, which were tested for 96 h due to their slower proliferation rate). In this setting, the SRB assay informs us of long-term changes to cell proliferation. We assessed the maximal inhibition within that concentration range, and descriptive statistics were performed. We performed a one-way ANOVA, followed by the Kruskal–Wallis test, regardless of the normal or non-normal distribution of the data. […]
The assay was performed similarly to the method used in [73]. […] Plates were measured in a plate photometer (Thermo Scientific Multiscan GO spectrophotometer, Waltham, MA, USA) at 540 nm. […] In calculations, the readings for these wells were considered as 1 and all readings were expressed relative to these values. […]

For “dichloro(η^6-p-cymene)osmium(II) dimer [Os-dimer]”, the “cytotoxic or cytostatic activity on fibroblasts (in words)” value was “None of the complexes, Os-3‒Os-6, or the Os-dimer exerted cytotoxic or cytostatic activity on fibroblasts”.

— article PMC8776094, “Reactive Oxygen Species Production Is Responsible for Antineoplastic Activity of Osmium, Ruthenium, Iridium and Rhodium Half-Sandwich Type Complexes with Bidentate Glycosyl Heterocyclic Ligands in Various Cancer Cell Models” (International Journal of Molecular Sciences, 2022)
